Source: patent US8476043B2 (dated 2013)

By UniProt entry, the sequences of proteins in these tests, tags left out.
UniProt P34913, whole entry: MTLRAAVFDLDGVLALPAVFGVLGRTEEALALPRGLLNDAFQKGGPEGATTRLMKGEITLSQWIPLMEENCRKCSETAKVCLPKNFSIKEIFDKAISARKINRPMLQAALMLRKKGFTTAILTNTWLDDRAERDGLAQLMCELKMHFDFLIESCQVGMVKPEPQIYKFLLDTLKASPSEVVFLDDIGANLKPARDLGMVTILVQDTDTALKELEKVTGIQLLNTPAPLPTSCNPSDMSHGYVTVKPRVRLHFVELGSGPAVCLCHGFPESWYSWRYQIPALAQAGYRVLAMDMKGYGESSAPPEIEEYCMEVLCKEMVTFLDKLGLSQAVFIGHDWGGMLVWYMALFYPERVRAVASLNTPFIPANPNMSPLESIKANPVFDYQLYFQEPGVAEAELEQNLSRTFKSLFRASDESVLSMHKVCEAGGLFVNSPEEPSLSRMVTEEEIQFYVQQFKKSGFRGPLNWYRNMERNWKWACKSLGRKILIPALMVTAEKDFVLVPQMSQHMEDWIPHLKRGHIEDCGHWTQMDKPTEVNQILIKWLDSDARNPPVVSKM

Target: human sEH (Homo sapiens, UniProt P34913)
Assay: sEH inhibition, fluorescent assay with cyano(6-methoxy-naphthalen-2-yl)methyl trans-[(3-phenyloxiran-2-yl)methyl]carbonate as substrate
Type: biochemical
Conditions: read-out: Human sEH IC50; Table 5; fluorescent-based assay, 0.96 nM human sEH, pH 7.0, [S] = 5 μM

CC(C)NC(=O)CCCCCCCCCCCNC(=O)NC12CC3CC(CC(C3)C1)C2 [Compound 793, 1-(1-Adamantyl)-3-(11-isopropylaminocarbonylundecyl)urea]
IC50: 2.9 nM
